Test results as given in patent US20240408175A1, “BMP9 OR AN AGONIST THEREOF AND ITS USES RELATED TO REDUCING METASTASIS OF CANCER” (THE UAB RESEARCH FOUNDATION, priority 2021, published 2024).

Legend:
Format in all cases: cell-based, human
PA1 cells = assay: Sulforhodamine B (SRB) growth assay, attached 2D; conditions: 10 nM, 3 days
Description: Growth of cells was monitored by seeding 1,000 cells per well in a 96 well plate, followed by treatment with 10 nM BMP2/9 for indicated times. At endpoint, medium was shaken out from plates, followed by addition of cold 10% trichloroacetic acid in each well, and incubation at 4° C. for 10 minutes. Five sequential wash steps were performed by complete immersion in water and shake out of the water from the plate. Next, 0.4% sulforhodamine B (SRB) in 1% acetic acid was added to each well and incubated at room temperature for 10 minutes. Five washed were done by complete immersion in 1% acetic acid followed by complete removal of the remaining wash. Plates were air dried overnight. Finally, […] of 20 mM Tris pH 10 (unbuffered) was added to each well and plate rocked on a rotary shaker for 1-2 hours and absorbance measured at 570 nm with a plate reader (Vichai and Kirtikara, 2006).

[1] = test system: 1-kb SOX2 promoter reporter; assay: pGL3-SOX2 promoter-reporter luciferase assay in HEK293 cells; conditions: 10 nM, 24 hours, serum-free
Description: HEK293 cells were transfected with the pGL3-SOX2 promoter-luciferase reporter plasmid construct and SV40-renilla for 24h. Treatment with BMP2 or BMP9 or TGF-or Activin A was carried out for 24 hours in serum-free media at either 10 nM or 400 pM respectively. According to the manufacturer's instruction, cells were collected and lysed in […] passive lysis buffer. To measure luciferase activity, […] of lysate was added to […] of dual Luciferase Assay Reagent, and luminescence was quantitated using a luminometer (Biotek).

SOX2 = SOX2 expression by Western blot / qRT-PCR in cancer cells
Description: Lysate and RNA preparation: 100,000-300,000 cells were seeded in a poly-HEMA coated 6-well plate for indicated times in full serum unless indicated otherwise. Cells were collected by centrifugation and lysed with trizol for RNA extraction or direct 2× lysis buffer for protein lysates.
Xenograft data were analyzed using parametric statistics as described in the legends. Survival curves were analyzed with log-rank statistics. In vitro experiments were analyzed using parametric statistics (ANOVA global test with Dunnett's/Sidak multiple comparison test as post-hoc tests as applicable and described in legend) and presented as the mean±SEM. All real time PCR's are relative semi quantitative RT-PCR's (hereby referred to as qRT-PCR) and are a combined quantitation of a minimum of 3 independent biological trials assayed in triplicate with biological replicates represented as individual scatter dots in the graphs or as indicated in legends. In all cases, statistical significance was set at a threshold of p<0.05. All statistical analyses were conducted with GraphPad Prism Software Ver. 9.0 and specific statistical test information described in figure legends.

[2] = test system: OC cell lines (PA1, OVCA420, OVCAR3, SKOV3, OVCA433); assay: Live/Dead analysis under anchorage independence (anoikis), panel of OC cell lines; conditions: 10 nM for 24 hours after 48 hours anchorage independence
Description: For Live/Dead analysis under anchorage independence, 1,000 cells were seeded in 96-well hydrogel-coated ultra-low attachment (ULA) plates (Corning #4515) for times indicated. Growth factor treatment was done under low serum 2.5% FBS condition (Cells were plated in 10% FBS to allow spheroid formation before beginning treatment). Cells were then stained with 2 μM Calcein-AM and 4 μM Ethidium-homodimer for 30 min before imaging. z-stacked images were obtained using the Zeiss LSM700 Confocal microscope (Microscopy and Flow Cytometry Core, University of South Carolina) and NIKON A1 Confocal microscope (UAB High Resolution Imaging Facility). Fluorescent quantification was performed using ImageJ Fiji software to calculate the Corrected Total Cell Fluorescent (CTCF)=Integrated Density−(Area of selected cell×Mean fluorescence of background readings) per spheroid.

B1: BMP2: recombinant human BMP2, BMP ligand of the TGF-β family (protein, UniProt P12643 283-396, looked up)
Bone morphogenetic protein 2: QAKHKQRKRLKSSCKRHPLYVDFSDVGWNDWIVAPPGYHAFYCHGECPFPLADHLNSTNHAIVQTLVNSVNSKIPKACCVPTELSAISMLYLDENEKVVLKNYQDMVVEGCGCR
cell growth (PA1 cells): did not alter
luciferase activity of SOX2 promoter reporter [1]: significantly reduce
SOX2 protein and RNA levels (SOX2; 10 nM, 24 hours, PA1 (and OVCAR3) cells): downregulation
SOX2 expression in other cancer types (SOX2; A549, BON-1, H727 cells, 24 hours): downregulated
anchorage-independence-induced increases in SOX2 (SOX2; OVCAR4, OVCA420, OVCA433 cells, 3D): effectively suppressed
dose-response of SOX2 protein (SOX2; PA1 and OVCAR3, indicated doses, 24 h): dose-dependent repression
percentage of dead cells [2]: increase
